Source: publication PMC8394532, “Structural and Functional Insights into the Biofilm-Associated BceF Tyrosine Kinase Domain from Burkholderia cepacia” (Biomolecules, 2021)

Tested on: Nc1ncnc2c1ncn2[C@@H]1O[C@H](COP(=O)(O)OP(=O)(O)OP(=O)(O)O)[C@@H](O)[C@H]1O
Experiment: purified protein
Settings: co-substrate peptide AAVHEYLSA, ATP varied, 50 mM HEPES pH 7.5, 150 mM NaCl, 4 mM MgCl2, 0.01% Triton X-100, 1% DMSO, ambient temperature

## BceF kinase domain (Burkholderia cepacia)
  Km: 123.06 ± 13.78 µM
  Vmax: 0.183 µM/min
  kcat: 0.000902 s⁻¹
  kcat/Km: 6.67 M⁻¹ s⁻¹
